Experiments:
Cavia porcellus = species on record: Cavia porcellus; experiment: Ke value for naloxon as antagonist (compound) was measured by using Guinea pig ileum assay.
Mus musculus = species on record: Mus musculus; experiment: Ke value for naloxone as antagonist (compound) was measured by using Mouse vas deferens (MVD) assay.

| SMILES | Ke (Cavia porcellus) [nM] | Ke (Mus musculus) [nM] |
| --- | --- | --- |
| C[C@@H](NC(=O)[C@@H](N)Cc1ccc(O)cc1)C(=O)NCC(=O)N(C)[C@@H](Cc1ccccc1)C(=O)NCCO [DAMGO] | 0.8 | – |
| CC(C)C[C@H](NC(=O)[C@H](Cc1ccccc1)NC(=O)CNC(=O)CNC(=O)[C@@H](N)Cc1ccc(O)cc1)C(=O)O | – | 21.4 |

Source: ChEMBL document CHEMBL1124430, “Dermorphin analogues carrying an increased positive net charge in their "message" domain display extremely high mu opioid receptor selectivity” (J Med Chem, 1989)
